Literature values as cited in patent US20260132160A1, “IRON REPLACEMENT TREATMENTS” (The General Hospital Corporation, priority 2022, published 2026).

Conditions: serum Zn^2+ speciation; cited from earlier work

## albumin: serum albumin, predominant binder of serum Zn^2+
  log KML PH 7.4 of Zn bound to albumin: 7.0
